Legend:
[1] = biological target: FITC-β-Ala-β-Ala-ALRGG (human); experiment: fluorescence polarisation
FITC-β-Ala-β-Ala-FDGFM = experiment: fluorescence polarisation
FITC-β-Ala-β-Ala-PSDHV = experiment: fluorescence polarisation
[2] = biological target: FITC-β-Ala-β-Ala-RLAGG (human); experiment: fluorescence polarisation
[3] = biological target: FITC-β-Ala-β-Ala-RLRAG (human); experiment: fluorescence polarisation
ubiquitin (Homo sapiens) = ubiquitin (Homo sapiens) (UniProt P0CG48); conditions: cited from earlier work

Substance | Kd [1] [µM] | Kd (FITC-β-Ala-β-Ala-FDGFM) [µM] | Kd (FITC-β-Ala-β-Ala-PSDHV) [µM] | Kd [2] [µM] | Kd [3] [µM] | Kd (ubiquitin (Homo sapiens)) [µM]
(His)6-tagged Ubp-M BUZ domain (from UniProt Q9Y5T5 22-143) (domain or fragment) | 2.3 | > 150 | > 140 | 16 | 62 | 
Ubp-M BUZ (from UniProt Q9Y5T5) |  |  |  |  |  | 6.5

From article PMC3005221
